## scFv variants of Ab-95 (light chain) against a SARS-CoV-2 spike peptide

From the AlphaSeq antibody data of Engelhart et al. 2022 (doi:10.1038/s41597-022-01779-4), copy in the FLAb collection.

Target: peptide PDVDLGDISGINAS, taken from heptad repeat 2 (HR2) of SARS-CoV-2 spike.

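In library AAYL52, one, two or three CDR residues were substituted; doubles and triples were drawn at random. Affinity was read by AlphaSeq, a pooled yeast mating assay with surface-displayed partners. Mating (16 h, 30 °C) was followed by selection of diploids and sequencing of their barcodes. Read counts were normalised to the haploid input and turned into Kd by a linear fit to BCL2-family pairs of known affinity, for each replicate. The assay was run in three technical replicates.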

Parent: Ab-95, a human scFv built as VH, three GGGGS repeats, VL. Only the CDRs of the light chain vary.
VH: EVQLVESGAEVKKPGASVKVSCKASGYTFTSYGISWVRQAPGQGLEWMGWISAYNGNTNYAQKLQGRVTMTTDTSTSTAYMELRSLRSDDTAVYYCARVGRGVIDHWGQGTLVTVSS
VL: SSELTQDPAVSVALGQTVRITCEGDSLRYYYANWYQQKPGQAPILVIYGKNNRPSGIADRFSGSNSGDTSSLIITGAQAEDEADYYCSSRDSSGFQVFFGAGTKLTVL

Substitutions are numbered in sequence along the VL above, starting at 1 (not Kabat). Scale: log10 of Kd in nM, estimated from mating counts; low values are strong binders. "ND" means that the variant was in the library but no mating with the target was seen in that replicate; the authors take this as a sign of poor binding, and no number exists. Background: pairings of library AAYL52 with three empty control strains gave a value in 28% of cases (median 3.91, 5th percentile 2.90). Values in that range, when seen in few replicates, are hard to tell from nonspecific mating. Also given: how often the same scFv was detected with the empty control strains, with their mean in brackets. Parent in this assay: reference entry 2.31, copy in this library 2.25.

| changes | log10 Kd (nM) by replicate | signal with controls |
|---|---|---|
| A32C+G49K+G94W | ND / ND / ND | 3/9 (4.31) |
| G49C+P54E+S93Y | 5.31 / 4.69 / ND | 3/9 (3.32) |
| R28V+N33C+P54N | 3.72 / ND / 3.13 | 5/9 (4.11) |
| P54A+S89H+R90T | ND / ND / ND | 0/9 |
| Y31T+S92V+G94N | 4.05 / 4.32 / ND | 5/9 (3.81) |
| R28E+K50D+D91W | ND / 4.75 / ND | 5/9 (4.31) |
| L27H+Y31D+F95Y | 2.60 / 2.79 / 2.05 | 5/9 (3.87) |
| R28K+G49R+Q96F | ND / ND / ND | 0/9 |
| G24W+R28Q+G94F | ND / 4.73 / 4.46 | 5/9 (3.84) |
| E23H+S26L+N52Y | 4.49 / 4.79 / ND | 2/9 (3.76) |
| S26P+Y31K+N33C | 3.50 / 4.43 / 3.66 | 5/9 (3.90) |
| A32T+G49Q+F95C | 4.83 / 5.15 / ND | 2/9 (3.58) |
| Y30E+N33R | 1.17 / 1.04 / 0.43 | 0/9 |
| D25S+Y29C+R90K | ND / ND / ND | 2/9 (2.92) |
| S55M+S89D+V97Q | ND / 5.17 / 3.95 | 0/9 |
| Y31F+A32H+K50Y | 3.23 / 2.84 / ND | 1/9 (3.22) |
| Y29Q+Y31K+F98G | 2.27 / 2.56 / 2.69 | 3/9 (4.23) |
| N33G+F95K+F98Q | 5.31 / ND / ND | 1/9 (4.75) |
| Y30C+P54I | ND / ND / 2.91 | 0/9 |
| S26A+S89F+S93Q | 2.07 / 1.84 / 1.83 | 1/9 (3.69) |
| G49K+S92D | ND / ND / 3.65 | 2/9 (3.58) |
| G24K+N52E+S93Q | 2.72 / 3.95 / ND | 3/9 (4.02) |
| L27F+G49M+R90N | 4.58 / ND / ND | 1/9 (3.72) |
| S26R+P54E+S92E | 3.91 / 3.72 / ND | 2/9 (3.32) |
| K50N+S88I | 3.01 / 2.83 / 1.95 | 1/9 (4.12) |
| D25N+Y29C+R53M | 3.71 / 4.63 / ND | 2/9 (4.76) |
| L27K+F95D | 3.16 / 2.87 / 3.81 | 1/9 (3.63) |
| S26E+F95N+Q96Y | 3.32 / ND / ND | 0/9 |
| N52D+S89K+S93F | ND / 3.90 / ND | 2/9 (3.82) |
| N51H | 3.04 / ND / 3.91 | 1/9 (2.91) |
| L27N+K50S+G94D | ND / 3.92 / ND | 2/9 (3.61) |
| R28S+G49V+S89D | ND / ND / ND | 1/9 (4.31) |
| D25M+R28P+N52T | 3.36 / 3.44 / 2.60 | 1/9 (3.94) |
| A32S+V97N+F98R | 3.20 / 2.53 / 2.04 | 2/9 (3.12) |
| S26C+Y30Q+D91Q | 3.87 / ND / 4.42 | 2/9 (3.43) |
| D25S+P54T | 3.07 / 2.65 / 2.41 | 2/9 (3.84) |
| S26I+N52T | 3.14 / 3.44 / 3.17 | 3/9 (3.24) |
| G24R+A32Y+R90N | ND / ND / ND | 3/9 (3.48) |
| E23G+S88K+F95W | ND / ND / 3.06 | 4/9 (4.40) |
| S26M+Y31G | 2.15 / 2.04 / 1.82 | 2/9 (3.25) |
| R28D+A32S+R90V | 3.92 / 4.55 / 4.61 | 2/9 (3.90) |
| S26P+N51W | 4.50 / ND / ND | 1/9 (4.23) |
| G24P+R53Y+S89I | ND / ND / 3.51 | 2/9 (4.25) |
| S26M+R53A+S88W | ND / 4.15 / ND | 1/9 (3.96) |
| Y29H+N51M+G94P | ND / 4.16 / 4.06 | 0/9 |

From the list, the first 4 with no signal in any replicate:

changes,log10 Kd (nM) by replicate,signal with controls
A32C+G49K+G94W,ND / ND / ND,3/9 (4.31)
P54A+S89H+R90T,ND / ND / ND,0/9
R28K+G49R+Q96F,ND / ND / ND,0/9
D25S+Y29C+R90K,ND / ND / ND,2/9 (2.92)